The values that follow are results of earlier work, collected in US6410588B1, “Use of cannabinoids as anti-inflammatory agents” (priority 1998, dated 2002).

By UniProt entry, the sequences of proteins in these tests, tags left out.
UniProt P21554, whole entry, species assumed: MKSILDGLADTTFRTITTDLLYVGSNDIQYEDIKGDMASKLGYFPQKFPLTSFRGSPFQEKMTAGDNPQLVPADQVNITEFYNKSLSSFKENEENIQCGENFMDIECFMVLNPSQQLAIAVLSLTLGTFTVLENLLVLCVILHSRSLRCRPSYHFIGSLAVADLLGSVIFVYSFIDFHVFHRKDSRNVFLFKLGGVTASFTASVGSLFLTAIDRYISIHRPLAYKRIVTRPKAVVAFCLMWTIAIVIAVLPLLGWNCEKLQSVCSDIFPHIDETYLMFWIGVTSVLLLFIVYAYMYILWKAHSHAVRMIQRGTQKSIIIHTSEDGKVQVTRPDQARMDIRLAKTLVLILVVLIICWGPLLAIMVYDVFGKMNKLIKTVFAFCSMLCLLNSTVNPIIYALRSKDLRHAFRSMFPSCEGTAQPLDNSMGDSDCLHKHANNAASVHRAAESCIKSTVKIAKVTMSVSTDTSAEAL

The structures appear in SMILES notation.

The data set addresses CB1 (Homo sapiens, UniProt P21554). The conditions noted are these: cited from earlier work.

With `C=C(C)[C@@H]1CCC(C)=C[C@H]1c1c(O)cc(CCCCC)cc1O` [CBD, Cannabidiol], the “binding to brain receptor CB1” value was “does not bind”.
